Source: patent publication US4505932A, “Method of producing α2 -adrenergic receptor agonist activity” (Abbott Laboratories, priority 1984, dated 1985)

By UniProt entry, the sequences of proteins in these tests, tags left out.
UniProt P15823, whole entry: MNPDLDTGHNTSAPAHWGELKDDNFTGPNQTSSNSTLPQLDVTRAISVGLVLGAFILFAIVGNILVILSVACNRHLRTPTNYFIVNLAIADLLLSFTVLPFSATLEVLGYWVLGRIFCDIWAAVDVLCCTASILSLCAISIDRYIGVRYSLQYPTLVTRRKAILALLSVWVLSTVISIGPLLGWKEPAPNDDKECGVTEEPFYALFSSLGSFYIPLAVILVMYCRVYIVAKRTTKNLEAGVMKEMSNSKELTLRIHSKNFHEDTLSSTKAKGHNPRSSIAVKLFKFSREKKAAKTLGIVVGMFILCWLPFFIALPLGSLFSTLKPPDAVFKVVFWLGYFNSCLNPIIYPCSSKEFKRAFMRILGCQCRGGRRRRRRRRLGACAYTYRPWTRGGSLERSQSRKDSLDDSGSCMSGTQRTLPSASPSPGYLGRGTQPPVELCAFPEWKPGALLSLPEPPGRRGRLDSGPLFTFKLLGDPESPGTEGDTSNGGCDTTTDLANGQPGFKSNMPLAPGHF

How the values were obtained:
α2 -adrenergic receptors = format: binding; conditions: selectivity ratio, rat liver α1 vs rat brain cortex α2
α1 -adrenergic receptors = target: T1, α1 -adrenergic receptors (Rattus norvegicus, UniProt P15823); experiment: radioligand binding, [3H] prazosin displacement in rat liver
T1 construct: from tissue; host or cells: rat liver

| SMILES | KIα1/KIα2 (α2 -adrenergic receptors) | Ki (α1 -adrenergic receptors) |
| --- | --- | --- |
| CNC[C@H](O)c1ccc(O)c(O)c1 [Epinephrine, epinephrine, reference compound] | 5 | 286 nM |
| Clc1cccc(Cl)c1N=C1NCCN1 [Clonidine, clonidine, reference compound] | – | 648 nM |
